Measurements published in paper PMC6446070, “Discovery of novel isoflavone derivatives as AChE/BuChE dual-targeted inhibitors: synthesis, biological evaluation and molecular modelling” (Journal of Enzyme Inhibition and Medicinal Chemistry, 2017).

The chains behind the UniProt entries cited, without tags or fusion partners. Residues count along the entry.
UniProt P06276, 29-602: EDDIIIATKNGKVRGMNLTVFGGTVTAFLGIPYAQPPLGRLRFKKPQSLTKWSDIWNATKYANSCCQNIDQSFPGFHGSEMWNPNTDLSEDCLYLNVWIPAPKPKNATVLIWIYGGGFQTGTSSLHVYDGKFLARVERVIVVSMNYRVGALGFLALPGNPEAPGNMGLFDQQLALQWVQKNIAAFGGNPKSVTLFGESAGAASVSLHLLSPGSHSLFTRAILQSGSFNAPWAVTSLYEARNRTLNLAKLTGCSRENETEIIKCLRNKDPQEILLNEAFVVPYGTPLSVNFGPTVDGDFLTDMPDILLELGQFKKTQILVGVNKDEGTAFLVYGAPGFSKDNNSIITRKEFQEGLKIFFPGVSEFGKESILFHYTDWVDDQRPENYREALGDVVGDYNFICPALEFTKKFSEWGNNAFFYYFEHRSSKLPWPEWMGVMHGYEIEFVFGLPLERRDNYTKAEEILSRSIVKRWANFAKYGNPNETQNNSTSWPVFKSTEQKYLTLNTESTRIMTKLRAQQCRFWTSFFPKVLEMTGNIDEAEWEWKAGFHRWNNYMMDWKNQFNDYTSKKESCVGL

Molecular target: T1, BuChE (Homo sapiens, UniProt P06276)
T1 construct: BuChE (3.4 U/mg) was obtained from human plasma; from tissue; host or cells: human plasma
Assay: biochemical
Method: To measure in vitro AChE/BuChE activity, modified Ellman's method[27–30] was performed using a 96-well plate reader (BioTek ELx808). AChE (0.5 U/mg) was extracted from rat cortex while BuChE (3.4 U/mg) was obtained from human plasma. Each well contained 50 μl potassium phosphate buffer (KH2PO4/K2HPO4, 0.1 M, pH 8.0), 25 μl test compounds and 25 μl enzyme. […] They were pre-incubated for 60 min at 37 °C, and then 125 μl 5,5′-dithiobis-2-nitrobenzoic acid (DNTB, 3 mM in buffer) was added. […] A control experiment was performed under the same condition without any inhibitor and the blank contained buffer, water, DTNB and substrate. The described method was also performed for BuChE bioassay.

CC(C)NP(=O)(NC(C)C)OP(=O)(NC(C)C)NC(C)C [Iso-OMPA, tetraisopropyl pyrophosphoramide, reference compound]
IC50: 5.78 µM
